# Results published in patent US12600796B2, “Constructs for chimeric antigen receptors” (Carisma Therapeutics Inc., priority 2020, dated 2026).
# B1: IFN-β: interferon cytokine that induces an M1 phenotype (protein, UniProt P01574 22-187, looked up)
# Interferon beta: MSYNLLGFLQRSSNFQCQKLLWQLNGRLEYCLKDRMNFDIPEEIKQLQQFQKEDAALTIYEMLQNIFAIFRQDSSSTGWNETIVENLLANVYHQINHLKTVLEEKLEKEDFTRGKLMSSLHLKRYYGRILHYLKAKEYSHCAWTIVRVEILRNFYFINRLTGYLRN
# Columns and labels:
# Human macrophages = test: Viability, CAR expression and M1/M2 markers of HER2 CAR mRNA-electroporated macrophages treated with interferons; format: cell-based
# Protocol: (§1) Human macrophages were electroporated with HER2 CAR mRNA comprising m6AGCap1 and PsU modifications. Cells were cultured with cytokines that induce an M1 phenotype such as IFN-alpha, IFN-beta, IFN-gamma, IFN-gamma plus lipopolysaccharide (LPS), TNF-alpha, IL-6 or a STING ligand (STING-L) for up to 48 hours and then cytokines were washed off and fresh media was added. CAR expression and M1 marker expression were measured on days 2 and 7 after transfection. Fluorescent labeled HER2+ breast cancer cells (CRL2351) were co-cultured with HER2 CAR macrophages two days after the macrophages were transfected. Cancer cell growth was monitored via its fluorescence on an Incucyte® live imaging microscope every four hours. The Effector (CAR macrophage) to Target (cancer cell) ratio was 5:1.
# (§2) Five different mRNA modifications were also tested to determine if interferon treatment differentially affected macrophages transfected with mRNA comprising different modifications. Human macrophages were electroporated with HER2 CAR mRNA comprising different mRNA modifications. CAR expression and M1 markers were detected by Flow Cytometry (Attune) on day four after electroporation. Day 4 CAR macrophage cells were then co-cultured with a Nuc-Light labeled, HER2+ breast cancer cell line (CRL2351) at an Effector (CAR macrophage) to Target (cancer cell) ratio of 5:1. Cancer cell growth was monitored via its fluorescence on an Incucyte® live imaging microscope every four hours.
# To further evaluate the impact of IFN-β on CAR persistence, human macrophages electroporated with m6AGCap1/PsU mRNA encoding a HER2 CAR were evaluated on day 2 and day 7.
# In order to validate the effect of IFN-β treatment on improved CAR expression, and to optimize the IFN-β concentration, macrophages transfected with M6AGCap1/PsU modified mRNA were treated with 0, 3, 10, 30, or 100 ng/mL IFN-β for 4 hours and the viability, CAR percentage, and CAR MFI were evaluated on day 4 and day 7 post electroporation.
# Given that macrophage phenotype is considered plastic, and immunosuppressive cytokines such as IL-10 are known to induce an M2 phenotype, the impact of IL-10 treatment on IFN-β treated or untreated HER2 CAR mRNA transfected macrophages was evaluated.
# Additional studies were performed to determine if treatment with interferons could further improve CAR mRNA persistence in macrophages and if CAR macrophage functionality could be extended. Human macrophages were electroporated with 300 nM CAR mRNA comprising m6AGCap1 and PsU modifications. Cells were cultured with 20 ng/mL IFNs for 24 hours and then the cells were washed to remove cytokines. CAR expression was detected by Flow Cytometry (Attune) on day 2 after transfection. Cells were then co-cultured with a Nuc-Light labeled, HER2+ breast cancer cell line (CRL2351) at the Effector to Target ratio of 3:1. Cancer cell growth was monitored via its fluorescence on an Incucyte® live imaging microscope. CAR expression and M1 markers in macrophages were detected by Flow Cytometry (Attune) on day 7 after transfection.
# [1] = system: HER2+ breast cancer cell line (CRL2351); test: Cancer cell killing by HER2 CAR mRNA macrophages treated with interferons (Incucyte); format: cell-based, human
# Protocol: as §1, §2
# To evaluate the anti-tumor function of macrophages transfected with mRNA encoding a HER2 CAR with or without priming with IFN-β, untransduced (UTD) or CAR macrophages were primed with 0, 3, 10, 30, or 100 ng/mL IFN-β for 4 hours or 20 hours. These effector cells were then co-cultured with the HER2+ breast cancer cell line CRL2351-GFP at an effector to target ratio of 3:1 or 1.5:1 and anti-tumor activity was measured based on GFP expression using an Incucyte® live imaging microscope. […] To evaluate whether the improved mRNA-transfected CAR macrophage anti-tumor effect was universal to all interferons or only interferon beta, macrophages electroporated with M6AGCap1/PsU mRNA were treated with IFN-alpha, beta, or gamma and evaluated for their cancer cell killing ability.
# Additional studies were performed to determine if treatment with interferons could further improve CAR mRNA persistence in macrophages and if CAR macrophage functionality could be extended. […] CAR expression was detected by Flow Cytometry (Attune) on day 2 after transfection. […] Cancer cell growth was monitored via its fluorescence on an Incucyte® live imaging microscope. CAR expression and M1 markers in macrophages were detected by Flow Cytometry (Attune) on day 7 after transfection.
# [2] = system: HER2+ breast cancer cells (CRL2351); test: Cytokine secretion of interferon-treated HER2 CAR macrophages co-cultured with cancer cells (MSD); format: cell-based, human; settings: E:T 3:1, supernatant at 48 hours; FIG. 126
# Protocol: To evaluate whether interferon treatment of macrophages improved other anti-tumor functions, the cytokine secretion of interferon treated or untreated mRNA transfected HER2 CAR macrophages after co-culture with HER2+ breast cancer cells was evaluated. Human macrophages were electroporated with 150 nM HER2 CAR mRNA comprising m6AGCap1 and PsU modifications. HER2+ breast cancer cells (CRL2351) were co-cultured with CAR macrophages after the macrophages were transfected with the CAR mRNA at an Effector (CAR macrophage) to Target (cancer cell) ratio of 3:1. Supernatant was collected 48 hours after the cancer cells and macrophages were co-cultured and cytokine levels were measured using a Meso Scale Discovery (MSD) instrument.
molecule,measurement,setting,value
B1,"induction of M1 markers CD80, CD86, and HLA-DR","Human macrophages; 0-100 ng/mL, FIG. 123B",dose-dependent
same,M2 marker CD163 after IL-10,Human macrophages; 48 hours and 7 days post-treatment with IL-10,did not express the M2 marker CD163
same,response of treated CAR macrophages to IL-10,"Human macrophages; 48 hours and 7 days post-treatment with IL-10, FIGS. 124A-B",resisted the effects of IL-10
same,M1 phenotype (based on CD86 expression),Human macrophages; FIG. 121E,induction of an M1 phenotype
same,persistence of M1 phenotype post treatment,Human macrophages; FIG. 121E,at least 7 days
same,strength of M1 phenotype among interferons,Human macrophages; FIG. 121E,strongest M1 phenotype of the interferons evaluated
same,M2 markers (based on CD163 expression),Human macrophages; FIG. 121F,reduction of M2 markers
same,level of cancer killing among treated CAR macrophages,"[1]; 7 days post-electroporation, FIG. 128B",highest level of cancer killing
same,anti-tumor activity with mRNAs comprising different modifications,[1]; FIG. 125B,improved anti-tumor activity for all CAR macrophages except those transfected with 5moU mRNA
same,cancer cell killing compared among interferons,"[1]; M6AGCap1/PsU mRNA, FIG. 125C","best cancer cell killing, with a greater effect than IFN-α or IFN-γ"
same,ability of CAR macrophages to kill cancer cells,"[1]; primed 0-100 ng/mL for 4 or 20 hours, E:T 3:1 or 1.5:1, FIG. 125A",improved ability for CAR macrophages to kill cancer cells
same,"secretion of IL-6, IL-8 and TNFα",[2],"increased secretion of the cytokines IL-6, IL-8 and TNFα"
